Legend:
[1] = molecular target: Endothelin receptor type B (Homo sapiens, UniProt P24530)
P2X purinoceptor 1 = P2X purinoceptor 1 (Homo sapiens, UniProt P51575)
Vasopressin V1a receptor = Vasopressin V1a receptor (Bos taurus, UniProt A2VDS9)
[2] = molecular target: Alpha-1A adrenergic receptor (Homo sapiens, UniProt P35348)
[3] = molecular target: AP-4 complex subunit sigma-1 (Homo sapiens, UniProt Q9Y587)
[4] = molecular target: Gamma-aminobutyric acid (GABA) B receptor 1 (Rattus norvegicus, UniProt Q6MFX8)
D(4) dopamine receptor = D(4) dopamine receptor (Homo sapiens, UniProt P21917)
[5] = molecular target: 5-hydroxytryptamine receptor 2C (Homo sapiens, UniProt P28335)
Substance-P receptor = Substance-P receptor (Homo sapiens, UniProt P25103)
[6] = molecular target: Type-2 angiotensin II receptor (Rattus norvegicus, UniProt P35351)
[7] = molecular target: ATP-sensitive inward rectifier potassium channel 1 (Homo sapiens, UniProt P48048)
[8] = molecular target: Platelet-activating factor receptor (Homo sapiens, UniProt P25105)
[9] = molecular target: Beta-1 adrenergic receptor (Homo sapiens, UniProt P08588)
Galanin peptides = Galanin peptides (Homo sapiens, UniProt P22466)
[10] = molecular target: Cysteinyl leukotriene receptor 1 (Mus musculus, UniProt Q99JA4)
[11] = molecular target: Beta-2 adrenergic receptor (Homo sapiens, UniProt P07550)
[12] = molecular target: Potassium voltage-gated channel subfamily A member 1 (Homo sapiens, UniProt Q09470)
Neuromedin-B receptor = Neuromedin-B receptor (Homo sapiens, UniProt P28336)
[13] = molecular target: 5-hydroxytryptamine receptor 1D (Homo sapiens, UniProt P28221)
[14] = molecular target: Peripheral-type benzodiazepine receptor-associated protein 1 (Homo sapiens, UniProt O95153)
[15] = molecular target: Kappa-type opioid receptor (Homo sapiens, UniProt P41145)
[16] = molecular target: 5-hydroxytryptamine receptor 7 (Homo sapiens, UniProt P34969)
[17] = molecular target: Calcitonin gene-related peptide 1 (Homo sapiens, UniProt P06881)

Sequences of proteins named here, by UniProt entry; tags and fusion partners are left off. A change or cut given only in a name is not applied to a line headed by its entry. Residues count along the entry.
UniProt P24530: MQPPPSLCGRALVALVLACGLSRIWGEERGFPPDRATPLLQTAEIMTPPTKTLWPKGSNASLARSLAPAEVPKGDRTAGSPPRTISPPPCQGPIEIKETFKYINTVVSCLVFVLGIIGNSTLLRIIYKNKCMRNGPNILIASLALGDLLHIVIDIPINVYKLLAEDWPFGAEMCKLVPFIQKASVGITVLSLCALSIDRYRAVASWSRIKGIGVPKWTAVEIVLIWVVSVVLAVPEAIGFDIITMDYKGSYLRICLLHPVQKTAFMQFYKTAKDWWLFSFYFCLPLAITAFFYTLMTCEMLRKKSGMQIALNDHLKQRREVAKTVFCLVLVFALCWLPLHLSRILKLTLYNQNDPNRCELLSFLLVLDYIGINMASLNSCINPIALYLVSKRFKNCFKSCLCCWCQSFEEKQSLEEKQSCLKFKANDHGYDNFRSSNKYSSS
UniProt P51575: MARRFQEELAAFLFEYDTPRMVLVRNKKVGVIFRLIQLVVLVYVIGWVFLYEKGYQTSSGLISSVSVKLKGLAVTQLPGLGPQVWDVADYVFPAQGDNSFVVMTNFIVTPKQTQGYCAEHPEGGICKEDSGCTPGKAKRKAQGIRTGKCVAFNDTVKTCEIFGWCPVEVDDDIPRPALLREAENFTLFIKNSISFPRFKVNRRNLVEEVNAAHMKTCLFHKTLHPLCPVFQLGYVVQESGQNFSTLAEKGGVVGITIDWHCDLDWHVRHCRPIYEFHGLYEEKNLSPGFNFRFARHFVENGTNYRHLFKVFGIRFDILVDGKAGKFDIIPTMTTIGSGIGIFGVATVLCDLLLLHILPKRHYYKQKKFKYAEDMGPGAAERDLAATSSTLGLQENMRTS
UniProt P35348: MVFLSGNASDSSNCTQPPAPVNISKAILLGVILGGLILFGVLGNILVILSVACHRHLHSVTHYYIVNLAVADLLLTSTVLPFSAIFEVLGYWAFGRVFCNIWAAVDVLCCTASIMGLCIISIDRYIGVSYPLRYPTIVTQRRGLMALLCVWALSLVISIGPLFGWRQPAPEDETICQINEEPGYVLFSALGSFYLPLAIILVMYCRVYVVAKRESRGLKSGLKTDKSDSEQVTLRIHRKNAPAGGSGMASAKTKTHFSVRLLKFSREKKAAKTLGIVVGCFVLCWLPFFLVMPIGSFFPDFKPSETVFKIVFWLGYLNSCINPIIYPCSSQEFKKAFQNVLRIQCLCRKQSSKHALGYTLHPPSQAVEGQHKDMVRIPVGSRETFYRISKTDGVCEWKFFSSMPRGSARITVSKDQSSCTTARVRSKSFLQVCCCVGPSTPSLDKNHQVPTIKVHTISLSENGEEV
UniProt Q9Y587: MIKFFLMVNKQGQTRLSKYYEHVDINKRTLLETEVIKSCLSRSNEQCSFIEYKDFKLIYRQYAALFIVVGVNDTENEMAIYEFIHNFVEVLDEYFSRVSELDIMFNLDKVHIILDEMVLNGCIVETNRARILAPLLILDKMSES
UniProt Q6MFX8, whole entry: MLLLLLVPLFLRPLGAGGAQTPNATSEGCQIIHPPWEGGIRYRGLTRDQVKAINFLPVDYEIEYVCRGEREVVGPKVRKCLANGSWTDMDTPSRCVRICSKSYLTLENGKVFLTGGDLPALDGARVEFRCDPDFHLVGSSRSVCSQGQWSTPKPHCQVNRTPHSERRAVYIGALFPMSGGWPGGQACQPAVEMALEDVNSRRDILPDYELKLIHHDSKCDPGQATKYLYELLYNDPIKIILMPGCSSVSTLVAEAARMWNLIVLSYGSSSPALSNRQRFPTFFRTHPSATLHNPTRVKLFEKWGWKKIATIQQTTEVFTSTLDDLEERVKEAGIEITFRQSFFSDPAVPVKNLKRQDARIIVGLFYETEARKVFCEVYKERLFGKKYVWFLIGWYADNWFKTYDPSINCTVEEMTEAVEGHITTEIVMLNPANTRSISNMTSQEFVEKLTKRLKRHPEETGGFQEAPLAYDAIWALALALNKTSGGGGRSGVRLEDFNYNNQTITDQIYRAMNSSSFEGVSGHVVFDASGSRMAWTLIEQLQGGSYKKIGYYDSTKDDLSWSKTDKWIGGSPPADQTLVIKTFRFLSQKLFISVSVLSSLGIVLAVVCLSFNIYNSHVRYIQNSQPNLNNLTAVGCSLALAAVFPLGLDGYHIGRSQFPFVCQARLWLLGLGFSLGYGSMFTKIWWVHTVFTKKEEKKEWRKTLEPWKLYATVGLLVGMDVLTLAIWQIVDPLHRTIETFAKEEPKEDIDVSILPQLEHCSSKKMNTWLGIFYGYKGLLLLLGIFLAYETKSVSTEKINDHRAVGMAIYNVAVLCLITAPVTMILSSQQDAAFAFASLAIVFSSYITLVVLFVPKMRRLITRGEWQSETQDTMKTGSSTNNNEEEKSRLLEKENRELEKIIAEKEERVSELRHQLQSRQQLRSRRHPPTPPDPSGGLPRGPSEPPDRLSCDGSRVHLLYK
UniProt P21917, whole entry: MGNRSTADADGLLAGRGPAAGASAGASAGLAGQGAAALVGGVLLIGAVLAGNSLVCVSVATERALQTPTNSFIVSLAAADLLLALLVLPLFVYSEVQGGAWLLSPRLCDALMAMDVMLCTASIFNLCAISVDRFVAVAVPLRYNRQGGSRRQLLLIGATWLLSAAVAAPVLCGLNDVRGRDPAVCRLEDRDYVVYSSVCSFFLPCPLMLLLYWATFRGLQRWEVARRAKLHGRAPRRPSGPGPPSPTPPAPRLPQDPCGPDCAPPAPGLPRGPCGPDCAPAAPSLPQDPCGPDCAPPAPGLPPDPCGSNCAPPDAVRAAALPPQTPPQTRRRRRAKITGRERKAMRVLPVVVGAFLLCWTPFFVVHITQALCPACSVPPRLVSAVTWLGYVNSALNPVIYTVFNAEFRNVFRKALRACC
UniProt P28335: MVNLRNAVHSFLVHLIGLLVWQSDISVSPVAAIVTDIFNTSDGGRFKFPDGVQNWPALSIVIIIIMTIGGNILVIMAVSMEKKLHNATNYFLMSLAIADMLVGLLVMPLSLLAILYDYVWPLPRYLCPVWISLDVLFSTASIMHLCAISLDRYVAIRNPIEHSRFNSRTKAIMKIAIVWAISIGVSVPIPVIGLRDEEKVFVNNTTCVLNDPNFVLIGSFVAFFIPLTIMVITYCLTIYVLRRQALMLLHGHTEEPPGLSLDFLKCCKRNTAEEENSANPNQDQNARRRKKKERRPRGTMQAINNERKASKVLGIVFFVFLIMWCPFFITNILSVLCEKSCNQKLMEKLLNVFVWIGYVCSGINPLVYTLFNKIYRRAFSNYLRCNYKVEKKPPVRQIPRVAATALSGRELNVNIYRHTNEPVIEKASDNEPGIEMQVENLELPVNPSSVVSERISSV
UniProt P35351: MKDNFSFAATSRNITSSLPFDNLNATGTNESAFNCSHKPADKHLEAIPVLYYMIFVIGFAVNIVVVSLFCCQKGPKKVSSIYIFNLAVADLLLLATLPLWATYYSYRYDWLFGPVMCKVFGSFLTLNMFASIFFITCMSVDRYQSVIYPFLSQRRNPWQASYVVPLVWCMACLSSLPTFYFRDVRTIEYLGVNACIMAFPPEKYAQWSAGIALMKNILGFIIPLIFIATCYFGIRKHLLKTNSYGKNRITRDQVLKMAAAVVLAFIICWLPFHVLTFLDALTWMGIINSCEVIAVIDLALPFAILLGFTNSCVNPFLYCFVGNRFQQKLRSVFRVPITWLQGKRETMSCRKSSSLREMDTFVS
UniProt P48048: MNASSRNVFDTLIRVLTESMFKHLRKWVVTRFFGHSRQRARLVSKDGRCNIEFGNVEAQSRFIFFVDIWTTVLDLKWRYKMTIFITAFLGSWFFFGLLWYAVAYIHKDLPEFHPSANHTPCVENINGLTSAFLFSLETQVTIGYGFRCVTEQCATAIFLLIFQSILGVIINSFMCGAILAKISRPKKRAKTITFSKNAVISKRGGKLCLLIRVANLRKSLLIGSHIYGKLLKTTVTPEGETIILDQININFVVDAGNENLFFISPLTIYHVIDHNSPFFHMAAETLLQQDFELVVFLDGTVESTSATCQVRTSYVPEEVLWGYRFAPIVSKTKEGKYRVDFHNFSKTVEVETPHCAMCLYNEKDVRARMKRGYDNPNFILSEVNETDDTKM
UniProt P25105: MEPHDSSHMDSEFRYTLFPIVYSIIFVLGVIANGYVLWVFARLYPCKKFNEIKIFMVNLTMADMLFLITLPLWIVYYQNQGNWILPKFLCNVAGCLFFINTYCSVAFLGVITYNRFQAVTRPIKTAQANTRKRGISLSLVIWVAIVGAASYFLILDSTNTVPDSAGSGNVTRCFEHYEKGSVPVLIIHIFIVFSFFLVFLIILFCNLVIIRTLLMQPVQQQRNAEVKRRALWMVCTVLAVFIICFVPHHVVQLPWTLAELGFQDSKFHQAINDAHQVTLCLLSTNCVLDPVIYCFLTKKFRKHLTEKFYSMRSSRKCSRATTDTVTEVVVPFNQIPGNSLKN
UniProt P22466, 33-62 limits assumed: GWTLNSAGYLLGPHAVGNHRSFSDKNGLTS
UniProt P07550, whole entry: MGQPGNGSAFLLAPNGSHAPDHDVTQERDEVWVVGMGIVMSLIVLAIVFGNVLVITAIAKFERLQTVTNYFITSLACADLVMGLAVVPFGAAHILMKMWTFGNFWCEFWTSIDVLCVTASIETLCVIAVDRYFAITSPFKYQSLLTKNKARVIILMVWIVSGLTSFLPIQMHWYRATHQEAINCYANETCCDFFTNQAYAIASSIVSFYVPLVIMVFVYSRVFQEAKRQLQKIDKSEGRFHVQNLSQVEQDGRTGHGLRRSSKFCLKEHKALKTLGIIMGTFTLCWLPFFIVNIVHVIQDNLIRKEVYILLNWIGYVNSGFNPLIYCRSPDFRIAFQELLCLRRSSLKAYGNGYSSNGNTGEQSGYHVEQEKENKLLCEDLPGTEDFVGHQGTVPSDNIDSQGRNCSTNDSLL
UniProt Q09470, whole entry: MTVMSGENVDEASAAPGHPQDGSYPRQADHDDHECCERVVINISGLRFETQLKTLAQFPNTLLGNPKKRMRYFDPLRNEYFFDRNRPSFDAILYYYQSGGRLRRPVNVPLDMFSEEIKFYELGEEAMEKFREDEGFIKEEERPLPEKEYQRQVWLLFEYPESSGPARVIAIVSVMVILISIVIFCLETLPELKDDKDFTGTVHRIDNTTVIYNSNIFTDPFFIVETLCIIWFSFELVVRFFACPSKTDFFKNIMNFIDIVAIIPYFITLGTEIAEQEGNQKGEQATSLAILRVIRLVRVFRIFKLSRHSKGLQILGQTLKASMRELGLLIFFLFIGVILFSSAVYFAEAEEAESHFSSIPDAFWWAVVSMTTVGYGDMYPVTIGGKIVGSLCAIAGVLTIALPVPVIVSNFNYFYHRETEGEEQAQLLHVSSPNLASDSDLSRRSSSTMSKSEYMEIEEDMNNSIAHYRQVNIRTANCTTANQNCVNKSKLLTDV
UniProt P28336: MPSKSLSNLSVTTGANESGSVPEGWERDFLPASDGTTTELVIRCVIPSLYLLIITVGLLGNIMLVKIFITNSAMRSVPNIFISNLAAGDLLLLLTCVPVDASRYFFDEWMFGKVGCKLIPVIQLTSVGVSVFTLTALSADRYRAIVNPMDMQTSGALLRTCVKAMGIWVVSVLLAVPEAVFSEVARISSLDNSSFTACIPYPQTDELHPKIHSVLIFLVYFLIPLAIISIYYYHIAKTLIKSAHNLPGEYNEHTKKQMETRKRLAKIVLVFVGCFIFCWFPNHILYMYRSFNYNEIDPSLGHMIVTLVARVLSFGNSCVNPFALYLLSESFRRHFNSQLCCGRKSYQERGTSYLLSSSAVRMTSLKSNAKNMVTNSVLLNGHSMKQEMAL
UniProt P28221: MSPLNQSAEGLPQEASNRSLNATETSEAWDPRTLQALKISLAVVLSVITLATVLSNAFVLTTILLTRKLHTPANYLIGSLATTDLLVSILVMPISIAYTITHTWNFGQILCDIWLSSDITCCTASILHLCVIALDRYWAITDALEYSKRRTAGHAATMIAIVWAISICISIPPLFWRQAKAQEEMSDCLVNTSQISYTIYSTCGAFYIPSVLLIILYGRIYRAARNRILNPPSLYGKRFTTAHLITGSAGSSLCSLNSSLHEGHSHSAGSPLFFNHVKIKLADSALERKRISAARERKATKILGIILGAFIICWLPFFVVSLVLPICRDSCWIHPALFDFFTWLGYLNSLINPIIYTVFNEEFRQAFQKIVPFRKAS
UniProt P41145: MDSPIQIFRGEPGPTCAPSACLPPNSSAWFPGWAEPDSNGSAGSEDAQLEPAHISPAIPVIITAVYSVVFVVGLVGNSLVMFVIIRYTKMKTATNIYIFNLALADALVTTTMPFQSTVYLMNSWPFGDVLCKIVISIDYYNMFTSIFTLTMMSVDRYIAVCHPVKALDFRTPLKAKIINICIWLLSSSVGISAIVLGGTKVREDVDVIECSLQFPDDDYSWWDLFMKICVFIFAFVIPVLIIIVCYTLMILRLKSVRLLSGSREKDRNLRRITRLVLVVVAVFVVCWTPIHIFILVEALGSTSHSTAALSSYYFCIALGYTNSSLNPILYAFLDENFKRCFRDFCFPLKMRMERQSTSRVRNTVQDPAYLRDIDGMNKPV
UniProt P06881, 83-119 limits assumed: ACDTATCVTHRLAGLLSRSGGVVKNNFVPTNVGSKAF

Measured: Ki

CCc1c(C(=O)NN2CCCCC2)nn(-c2ccc(Cl)cc2Cl)c1-c1ccc(Br)cc1 [SR 147778]
1000 nM: all assays above
